Values of other authors as cited in publication PMC9005681, “Use of AD Informer Set compounds to explore validity of novel targets in Alzheimer's disease pathology” (Alzheimer's & Dementia : Translational Research & Clinical …, 2022).

Test system: SYK
Settings: published affinity; ref PubMed 24779514, Probe Miner, Chemical probes portal; cited from earlier work

## c1cn2cc(-c3ccc4cn[nH]c4c3)nc(Nc3ccc(N4CCOCC4)cc3)c2n1 [UNC10302678A, Entospletinib (GS-9973)]
  Reported on-target biochemical potency, SYK: 7.7 nM
